# Assay results: PubChem BioAssay (EPA / NIEHS)
# Only a part is listed here, and it is no random draw. Active and inactive are the calls of the source. The calls were made as follows: active = hit-call score of the fitted dose curve at least 0.9, where 1 is the maximum; inactive = score below 0.9.
# Experiment: ATG_SREBP_CIS: Attagene CIS-FACTORIAL HepG2 Assay for human Sterol Regulatory Element Binding (SREBP) (AID 2282962)
# Settings: HepG2 Attagene cis-factorial SREBP reporter, mRNA; actives raise or lower the signal
# Procedure: ATG_CIS is a cell-based, multiplexed-readout assay that uses HepG2, a human liver cell line, with measurements taken at 24 hours after chemical dosing in a 24-well plate.ATG_SREBP_CIS is one of 52 assay component(s) measured or calculated from the ATG_CIS assay. It is designed to make measurements of mRNA induction, a form of inducible reporter, as detected with fluorescence intensity signals by Reverse transcription polymerase chain reaction (RT-PCR) and Capillary electrophoresis technology.Data from the assay component ATG_SREBP_CIS was analyzed into 1 assay endpoint. This assay endpoint, ATG_SREBP_CIS, was analyzed with bidirectional fitting relative to DMSO as the negative control and baseline of activity. Using a type of inducible reporter, measures of mRNA for gain or loss-of-signal activity can be used to understand the reporter gene at the transcription factor-level as they relate to the gene SREBF1. Furthermore, this assay endpoint can be referred to as a primary readout, because this assay has produced multiple assay endpoints where this one serves a reporter gene function. To generalize the intended target to other relatable targets, this assay endpoint is annotated to the dna binding intended target family, where the subfamily is basic helix-loop-helix leucine zipper.
# Human liver HepG2 cells are transiently transfected with multiple reporter transcription units (MRTUs) in 6-well plates using FuGene 6 reagent (Roche; 3 ml FuGene/1 mg DNA). The MRTU constructs are regulated by a cis-regulating element (promoter). […] A major difference between the CIS and TRANS system is that in CIS activities of endogenous TFs are measured, whereas the TRANS assay evaluates changes in activities of exogenous, chimeric NR-Gal4 proteins. […] At the end of 24 hour incubation, total RNA was isolated using TriZol reagent (Invitrogen). The isolated RNA is then reverse-transcribed using oligo(dT) primer and Mo-MLV reverse transcriptase (Invitrogen) with DNAse I (Ambion) treatment for 30 min. The one-tenth of the produced cDNA was amplified by PCR using Taq DNA polymerase (Invitrogen) and two reporter sequence-specific primers. The PCR products were fluorescently labeled by primer extension with 6-arboxyfluorescein (6-FAM) 5'-labeled reporter sequence-specific primer (2 min at 95 C, 20 s at 68 C and 10 min at 72 C) and these products were digested with 5U of HpaI (New England Biolabs) for 2h at 37 C. The fragments were purified using Qiaquick PCR columns (Qiagen), analyzed on an ABI 3130xL genetic analyzer (Applied Biosystems) with peak positions identified by using a set of X-rhodamine (ROX)-labeled MapMarker1000 molecular weight standards (BioVentures). The raw capillary electrophoresis data was processed using Attagraph software (Attagene).
SMILES,outcome,AC50
CCCCO[P+](=O)OCCCC,inactive,–
CCCCOP(OCCCC)OCCCC,inactive,–
CC(C)OP(=S)(OC(C)C)SCCNS(=O)(=O)c1ccccc1,inactive,–
CC(C)CCCCCCCOP(OCCCCCCCC(C)C)Oc1ccccc1,–,active: 100 µM
CCCCC(CC)CO[P+](=O)OCC(CC)CCCC (configuration not stated),inactive,–
O=[p+]1oc2ccccc2c2ccccc21 (configuration not stated),inactive,–
O=P(Cl)(Oc1ccccc1)Oc1ccccc1,inactive,–
N#CSc1ccc([N+](=O)[O-])cc1[N+](=O)[O-],inactive,–
O=[As]c1ccccc1 (configuration not stated),–,active: 0.412 µM
CN(C(=O)Cc1cccc2occc12)[C@H]1CC[C@@]2(CCCO2)C[C@@H]1N1CCCC1,–,active: 100 µM
O=[N+]([O-])c1ccc([N+](=O)[O-])cc1,inactive,–
O=C1C2CC=CCC2C(=O)N1SC(Cl)(Cl)C(Cl)Cl (configuration not stated),inactive,–
O=[P+](Oc1ccccc1)Oc1ccccc1,inactive,–
Cc1cc([N+](=O)[O-])cc([N+](=O)[O-])c1O,inactive,–
ClP(Cl)c1ccccc1,inactive,–
O=C(Cl)Oc1ccccc1,inactive,–
O=C(Cl)OCCOC(=O)Cl,inactive,–
